# Apparent affinities of Ab-95 variants for a coronavirus HR2 peptide

Antigen: PDVDLGDISGINAS, a 14-residue peptide of the SARS-CoV-2 spike HR2 region.

Ab-95 is the parent antibody, in scFv form: VH, then the linker GGGGSGGGGSGGGGS, then VL. The heavy chain is unchanged in all variants.
VH: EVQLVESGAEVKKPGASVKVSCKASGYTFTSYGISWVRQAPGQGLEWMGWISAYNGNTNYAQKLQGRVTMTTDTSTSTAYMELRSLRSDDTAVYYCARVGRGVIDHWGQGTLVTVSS
VL: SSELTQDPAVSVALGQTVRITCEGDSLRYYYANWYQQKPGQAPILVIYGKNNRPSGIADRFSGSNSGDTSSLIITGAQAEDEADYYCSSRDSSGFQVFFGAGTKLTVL

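Phage display of a naive human antibody library on the peptide gave the parent. In library AAYL52, one, two or three CDR residues were substituted; doubles and triples were drawn at random. Affinity was read by AlphaSeq, a pooled yeast mating assay with surface-displayed partners. Mating (16 h, 30 °C) was followed by selection of diploids and sequencing of their barcodes. Scores were corrected for input abundance and mapped to Kd with protein pairs of known affinity run in the same pool. Mating was done three times.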

Changes read parent residue, position, new residue, counted from the first residue of the VL shown. Numbers give log10(Kd / nM), so 0 is 1 nM and 3 is 1 µM. Smaller is tighter. A mean of the replicates is given; it leaves out those without a signal. A pair that was not seen in that replicate is written "nd"; this usually means weak binding, but a binder can also be missed. Three control strains display no target. For library AAYL52, 28% of the pairings with them gave a signal, with a median of 3.91 and one signal in twenty below 2.90, so weak values seen in few replicates may be background. The control count says in how many pairings with the empty strains this scFv gave a signal, with their mean in brackets.

changes	log10 Kd, replicates	mean log10 Kd (nM)	signal with controls
N51P+D91P+Q96H	4.41 nd nd	4.41	2/9 (4.17)
S88Q+D91M+S92N	2.99 2.03 3.58	2.87	0/9
R28V+N33A+S55N	3.18 3.27 3.17	3.21	3/9 (3.46)
Y29T+S89D+F95H	3.39 3.97 nd	3.68	1/9 (5.01)
E23G+A32D+S88P	nd 3.29 nd	3.29	0/9
Y30N+S89M+D91M	1.66 1.85 1.05	1.52	4/9 (4.03)
Y30T+A32L+G94F	3.00 3.14 2.66	2.93	2/9 (3.94)
D25C+L27V+F95N	4.40 nd 4.16	4.28	5/9 (3.61)
Y30Q+S88G+F98Y	0.67 0.54 -0.01	0.40	7/9 (4.45)
Y31V+D91M	3.31 nd nd	3.31	2/9 (3.27)
D25H+R90G+V97A	3.52 3.73 3.44	3.56	1/9 (4.43)
D25C+A32E+N52G	nd 3.60 nd	3.60	2/9 (3.15)
D25P+G94L	2.06 2.25 2.13	2.15	3/9 (3.92)
G49M+D91G+G94H	3.28 2.80 nd	3.04	3/9 (3.49)
Y29A+S88A+S89A	2.14 1.57 1.12	1.61	0/9
S89Q+F95E+F98V	2.78 2.38 2.00	2.39	5/9 (4.54)
D25S+S93C+Q96Y	4.18 nd nd	4.18	3/9 (4.11)
L27K+Y31N+F98A	2.14 2.65 2.01	2.27	2/9 (4.02)
D25I+K50S+V97Q	3.75 3.35 nd	3.55	2/9 (3.56)
G24K+S26K+F98Y	nd nd 3.91	3.91	1/9 (3.48)
G94H+F95T	2.43 3.08 2.50	2.67	6/9 (3.86)
E23A+N51L+G94H	nd nd 3.25	3.25	6/9 (3.57)
E23P+N33V+F95C	nd 4.18 2.62	3.40	0/9
R90P+V97Q+F98W	2.50 2.59 3.48	2.85	1/9 (2.91)
Y30C+R90G+Q96N	nd 5.77 nd	5.77	4/9 (3.96)
N33I+G49T+G94E	3.21 3.39 nd	3.30	3/9 (3.54)
L27S+A32I+V97E	3.56 4.40 4.66	4.20	4/9 (3.78)
Y30F+G49C+N51M	2.63 nd nd	2.63	4/9 (4.36)
G24A+Y31M+G94C	nd 3.39 nd	3.39	1/9 (5.37)
Y29A+G49Y+P54E	nd nd nd	nd	2/9 (4.54)
Y30F+S93P	3.04 2.05 2.66	2.58	5/9 (4.03)
L27A+R90H+V97T	4.68 nd nd	4.68	2/9 (4.15)
G24Q+R90G+G94H	nd nd nd	nd	4/9 (4.29)
D25Y+S92T	2.07 2.26 1.88	2.07	4/9 (3.61)
S26K+N51E+S89G	nd nd nd	nd	1/9 (3.84)
Y29G+N52I+S89G	2.01 1.86 1.79	1.89	4/9 (3.48)
N33V+S89H+R90H	nd nd nd	nd	7/9 (4.29)
D25C+R28F+S88V	3.48 4.78 nd	4.13	5/9 (4.11)
G49E+R90E+Q96M	2.91 2.88 3.65	3.14	0/9
L27E+S92P	nd 4.79 nd	4.79	2/9 (3.07)
G24K+G49H+N52C	3.36 4.10 4.37	3.95	6/9 (3.58)
G49F+R53A+P54K	nd nd 2.92	2.92	3/9 (4.26)
G24R+S93M	3.27 nd nd	3.27	1/9 (3.86)
E23V+P54M	2.45 1.93 1.68	2.02	2/9 (3.70)
G24T+L27G+R90N	nd 3.49 4.46	3.97	5/9 (3.87)
L27C+G49N+N51C	3.81 5.60 nd	4.71	2/9 (3.81)
N52P+S89F+Q96P	nd nd nd	nd	0/9
K50S+R53M+V97M	3.94 5.25 nd	4.60	1/9 (2.96)
N33R+G49N+V97W	4.68 nd nd	4.68	2/9 (4.07)
N33S+N52L+S89R	3.18 nd 4.48	3.83	2/9 (4.28)
E23F+K50N+R90F	4.41 3.06 2.87	3.45	1/9 (5.70)

For reference, 5 entries of the list once more:

changes	log10 Kd, replicates	mean log10 Kd (nM)	signal with controls
D25S+S93C+Q96Y	4.18 nd nd	4.18	3/9 (4.11)
L27A+R90H+V97T	4.68 nd nd	4.68	2/9 (4.15)
G49F+R53A+P54K	nd nd 2.92	2.92	3/9 (4.26)
N51P+D91P+Q96H	4.41 nd nd	4.41	2/9 (4.17)
G24Q+R90G+G94H	nd nd nd	nd	4/9 (4.29)

In this assay the parent's reference entry averaged 2.31; its copy inside this library read 2.25.

Values reported by Engelhart et al. 2022, doi:10.1038/s41597-022-01779-4 (FLAb copy).